For one compound, Kd results are on record in publication PMC3390922 (The Journal of Neuroscience, 2010).

Amino acid sequences for entries named in this document (tags omitted).
UniProt Q61327, whole entry: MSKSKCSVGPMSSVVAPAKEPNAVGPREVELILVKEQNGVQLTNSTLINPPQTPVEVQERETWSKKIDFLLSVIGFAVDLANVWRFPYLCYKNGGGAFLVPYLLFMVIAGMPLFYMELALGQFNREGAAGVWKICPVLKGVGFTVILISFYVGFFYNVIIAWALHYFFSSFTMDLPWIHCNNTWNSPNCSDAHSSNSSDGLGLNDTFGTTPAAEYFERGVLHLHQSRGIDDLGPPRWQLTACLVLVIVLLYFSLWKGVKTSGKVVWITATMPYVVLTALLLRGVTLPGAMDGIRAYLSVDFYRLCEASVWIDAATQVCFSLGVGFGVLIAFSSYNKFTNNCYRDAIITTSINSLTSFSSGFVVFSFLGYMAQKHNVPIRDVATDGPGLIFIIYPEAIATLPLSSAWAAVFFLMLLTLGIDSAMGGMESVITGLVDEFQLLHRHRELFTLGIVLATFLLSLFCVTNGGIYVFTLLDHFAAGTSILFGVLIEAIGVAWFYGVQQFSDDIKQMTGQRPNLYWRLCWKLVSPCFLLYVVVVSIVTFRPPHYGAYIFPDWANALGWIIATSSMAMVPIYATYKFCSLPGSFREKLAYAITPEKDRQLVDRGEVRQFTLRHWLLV

Usually Kd stands for the concentration at which binding is half-saturated. Low readings indicate tighter binding, high ones weaker binding.

The target in the assay is dopamine transporter (DAT) (Mus musculus, UniProt Q61327). The assay can be described thus: biochemical. In kind it is binding.

Consider `OC1(c2ccc(Cl)cc2)c2ccccc2C2=NCCN21` (stereo not shown) [[^3H]-mazindol], for which the Kd is ~25 nM.
